Values of other authors as cited in US20090123376A1, “THERAPEUTIC AGENTS WITH DECREASED TOXICITY” (priority 2004, published 2009).

Conditions: patients; cited from earlier work

In the case of ibritumomab tiuxetan [ZEVALIN®], the cytopenias on administration is given as “severe and prolonged cytopenias in most patients”.
